# Columns and labels:
# [1] = tested on: MOR KO mice injected with AAV-vector, AAV-WT, and AAV-Y7.43A; assay: Basal pain threshold after 7 days of repeated dosing (hot plate); conditions: twice daily dosing for 7 days; opioid-induced hyperalgesia
# [2] = clinical studies; ref Hertz, 2018; cited from earlier work
smiles,measurement,setting,value
CN1CC[C@]23c4c5ccc(O)c4O[C@H]2[C@@H](O)C=C[C@H]3[C@H]1C5.Cl,"basal pain thresholds on days 3, 5, and 7 compared with day 1 (in words)",[1],significantly decreased
COc1ccsc1CNCC[C@@]1(c2ccccn2)CCOC2(CCCC2)C1,therapeutic window in humans compared with morphine (in words),[2],failed to demonstrate a significantly broader therapeutic window
